Species on record: Homo sapiens
Test: Selectivity index, ratio of IC50 for inhibition of human MAO-B using benzylamine as substrate to IC50 for inhibition of human MAO-A using kynuramine as substrate

SMILES: O=C1S/C(=C\c2ccc(N3CCN(c4ccc(F)cc4)CC3)cc2)C(=O)N1Cc1ccccc1
- Ratio IC50: 2.55
